Experimental data as given in US7858643B2.

Protein sequences, listed by entry. Tags and fused reporters are not part of them. Residues count along the entry.
UniProt P08581, 25-1390 limits assumed: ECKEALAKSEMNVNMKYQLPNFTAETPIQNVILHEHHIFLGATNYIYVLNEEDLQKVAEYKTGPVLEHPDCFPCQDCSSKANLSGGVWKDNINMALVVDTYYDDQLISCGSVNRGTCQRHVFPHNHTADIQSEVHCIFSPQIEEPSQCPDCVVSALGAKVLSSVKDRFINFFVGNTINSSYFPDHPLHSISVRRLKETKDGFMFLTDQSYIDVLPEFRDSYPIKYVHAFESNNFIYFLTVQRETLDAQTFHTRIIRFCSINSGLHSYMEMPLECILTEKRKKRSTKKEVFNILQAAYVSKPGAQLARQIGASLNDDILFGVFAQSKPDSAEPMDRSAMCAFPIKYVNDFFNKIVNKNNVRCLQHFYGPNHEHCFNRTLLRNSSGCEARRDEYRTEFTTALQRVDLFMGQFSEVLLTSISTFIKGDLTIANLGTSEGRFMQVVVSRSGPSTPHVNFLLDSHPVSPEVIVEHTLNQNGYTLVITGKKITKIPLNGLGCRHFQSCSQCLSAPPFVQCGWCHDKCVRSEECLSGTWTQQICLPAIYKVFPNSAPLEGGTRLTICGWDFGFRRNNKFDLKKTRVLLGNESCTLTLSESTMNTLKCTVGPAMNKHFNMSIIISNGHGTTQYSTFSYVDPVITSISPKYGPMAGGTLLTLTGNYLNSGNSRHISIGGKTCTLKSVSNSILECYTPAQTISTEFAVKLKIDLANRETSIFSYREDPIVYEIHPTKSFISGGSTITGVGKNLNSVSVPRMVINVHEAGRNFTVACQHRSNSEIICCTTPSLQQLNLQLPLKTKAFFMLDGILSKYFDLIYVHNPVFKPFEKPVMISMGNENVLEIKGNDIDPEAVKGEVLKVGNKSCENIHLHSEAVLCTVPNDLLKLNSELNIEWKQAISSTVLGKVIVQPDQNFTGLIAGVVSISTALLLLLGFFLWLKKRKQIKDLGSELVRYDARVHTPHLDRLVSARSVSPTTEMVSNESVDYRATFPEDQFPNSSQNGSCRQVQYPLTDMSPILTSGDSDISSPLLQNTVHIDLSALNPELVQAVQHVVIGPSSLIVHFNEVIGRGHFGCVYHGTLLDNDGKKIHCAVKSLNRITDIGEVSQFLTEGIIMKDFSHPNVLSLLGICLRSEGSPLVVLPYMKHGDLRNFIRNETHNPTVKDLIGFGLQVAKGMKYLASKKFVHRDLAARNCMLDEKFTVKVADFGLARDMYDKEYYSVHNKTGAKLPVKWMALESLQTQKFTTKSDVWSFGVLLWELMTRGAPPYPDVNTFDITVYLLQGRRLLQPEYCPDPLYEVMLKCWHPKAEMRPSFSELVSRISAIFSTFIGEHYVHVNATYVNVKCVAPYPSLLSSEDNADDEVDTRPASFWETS

Target: HGFR (c-Met) (Homo sapiens, UniProt P08581)
Test: HGFR Continuous-Coupled Spectrophotometric Assay
Conditions: read-out: c-Met Ki; HGFR enzyme 50 nM, Met-2 substrate peptide, 37° C.

Ki: 0.01 µM
Structure (SMILES): C[C@@H](Oc1cc(-c2ccc(C(=O)N(C)CCCN(C)C)cc2)cnc1N)c1c(Cl)ccc(F)c1Cl
